Results: ChEMBL document CHEMBL1135470, “Synthesis and protein kinase inhibitory activity of balanol analogues with modified benzophenone subunits” (J Med Chem, 2002)

Target: T1, Protein kinase C epsilon type (Homo sapiens, UniProt Q02156)
T1 sequence (Q02156 whole entry): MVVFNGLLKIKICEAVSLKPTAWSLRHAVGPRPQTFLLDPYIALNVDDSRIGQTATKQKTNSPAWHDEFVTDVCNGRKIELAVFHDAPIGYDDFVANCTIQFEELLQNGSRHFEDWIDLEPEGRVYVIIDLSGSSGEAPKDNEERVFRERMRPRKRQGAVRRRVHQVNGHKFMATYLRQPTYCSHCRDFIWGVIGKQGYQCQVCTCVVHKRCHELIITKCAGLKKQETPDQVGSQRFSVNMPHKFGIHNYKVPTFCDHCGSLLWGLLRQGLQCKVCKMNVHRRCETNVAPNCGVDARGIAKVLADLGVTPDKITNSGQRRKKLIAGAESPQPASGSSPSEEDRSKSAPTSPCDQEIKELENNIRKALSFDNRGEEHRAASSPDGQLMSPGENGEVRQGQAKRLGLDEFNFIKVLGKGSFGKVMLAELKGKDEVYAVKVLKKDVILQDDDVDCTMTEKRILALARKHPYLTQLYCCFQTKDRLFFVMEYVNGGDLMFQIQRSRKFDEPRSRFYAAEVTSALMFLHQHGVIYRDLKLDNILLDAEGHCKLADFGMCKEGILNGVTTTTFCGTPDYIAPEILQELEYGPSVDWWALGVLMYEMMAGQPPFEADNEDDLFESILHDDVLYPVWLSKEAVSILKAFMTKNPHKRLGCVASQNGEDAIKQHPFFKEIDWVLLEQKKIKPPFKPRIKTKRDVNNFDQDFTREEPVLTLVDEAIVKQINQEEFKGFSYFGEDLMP
Assay: Inhibition of partially purified recombinant human calcium insensitive protein kinase C epsilon
In short: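 Enzyme source was partially purified recombinant human PKC isozymes and PKA. IC50 was calculated from four-point curves of 10-fold dilutions, following a previously published procedure.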

IC50: 38 nM
SMILES: O=C(NC1CNCCC[C@H]1OC(=O)c1cc(O)c(C(=O)c2c(O)cccc2C(=O)O)c(O)c1)c1ccc(O)cc1 (stereo partly specified)
